Ab-95 light chain CDR variants: yeast mating affinities

Data: MIT Lincoln Laboratory AlphaSeq set, Engelhart et al. 2022, doi:10.1038/s41597-022-01779-4, as distributed in FLAb.

Target peptide (SARS-CoV-2 spike, HR2 region): PDVDLGDISGINAS

Parent scFv Ab-95: VH joined to VL by a 15-residue (Gly4Ser)3 linker. Changes lie in the light chain CDRs alone.
VH: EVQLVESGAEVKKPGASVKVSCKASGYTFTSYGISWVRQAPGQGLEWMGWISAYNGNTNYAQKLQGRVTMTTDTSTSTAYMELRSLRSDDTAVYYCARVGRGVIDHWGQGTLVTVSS
VL: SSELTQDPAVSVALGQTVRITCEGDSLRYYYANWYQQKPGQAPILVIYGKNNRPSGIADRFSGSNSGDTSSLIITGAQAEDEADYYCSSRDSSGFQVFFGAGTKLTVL

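Library AAYL52 holds single substitutions and randomly drawn double and triple substitutions in the CDRs. AlphaSeq pools MATa yeast showing the antibodies with MATalpha yeast showing the peptide. Pairs that bind mate more often; barcode pairs of the diploids are counted by sequencing. Each replicate has its own calibration line, from reference interactions of the BCL2 family. There are three technical replicates.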

Changes read parent residue, position, new residue, counted from the first residue of the VL shown.
All variants listed here change E23 of the VL, counted from its first residue.
The Kd shown is the geometric mean over detected replicates; a lower Kd is a better binder.
An entry "nd" has no value in the source: the pair was not observed among the diploids in any replicate. This suggests poor binding but is not conclusive.
As a blank, each scFv also met three strains without target: over library AAYL52, 28% of these pairings were detected, typically at 8.2 µM and seldom below 800 nM.

- E23G/K50N -> 130 nM (3 of 3 replicates)
- E23W/A32C/Q96N -> 59 nM (3 of 3 replicates)
- E23Q/Y29D -> 22 nM (3 of 3 replicates)
- E23A/S55R/V97P -> 520 nM (2 of 3 replicates)
- E23N/S88V/G94Y -> 1.3 µM (3 of 3 replicates)
- E23T/R53N/S89I -> 230 µM (2 of 3 replicates)
- E23A/S89L/S93H -> nd (0 of 3 replicates)
- E23I/Q96D -> 6.8 µM (3 of 3 replicates)
- E23L/S55C/S88L -> 17 µM (1 of 3 replicates)
- E23Q/Y29C/F98S -> 790 nM (3 of 3 replicates)
- E23N/Y30I/N52A -> 910 nM (3 of 3 replicates)
- E23L/D91N/F98L -> 2.1 µM (1 of 3 replicates)
- E23K/P54L/V97Y -> 580 nM (3 of 3 replicates)
- E23V/N51V/S55R -> 3.6 µM (3 of 3 replicates)
- E23L/Y29P/R90G -> 320 nM (3 of 3 replicates)
- E23D/S26L/S88V -> 21 µM (1 of 3 replicates)
- E23N/N51W/Q96T -> 15 µM (3 of 3 replicates)
- E23L -> 410 nM (3 of 3 replicates)
- E23C/Y29H/F98C -> 570 nM (3 of 3 replicates)
- E23S/A32M/D91M -> 2.2 µM (3 of 3 replicates)
- E23H/K50C -> 3.4 µM (3 of 3 replicates)
- E23P/F95G -> 9.8 µM (2 of 3 replicates)
- E23T/V97N -> 200 nM (3 of 3 replicates)
- E23M/G24E -> 100 µM (1 of 3 replicates)
- E23Q/S89P/V97I -> 56 nM (3 of 3 replicates)
- E23V/D91S/V97H -> 6.2 µM (1 of 3 replicates)
- E23A/Y29V/S93D -> 5.4 µM (2 of 3 replicates)
- E23N/N52V -> 170 nM (3 of 3 replicates)
- E23C/G49I/R90I -> nd (0 of 3 replicates)
- E23F/A32P -> 51 nM (3 of 3 replicates)
- E23G/F95S/Q96Y -> 2.5 µM (3 of 3 replicates)
- E23P/N33S/N51V -> 28 µM (2 of 3 replicates)
- E23H/D25T/G49C -> 20 µM (2 of 3 replicates)
- E23N -> 48 nM (3 of 3 replicates)
- E23F/G49P/R53W -> 12 µM (1 of 3 replicates)
- E23N/L27I/N52C -> 5.9 µM (1 of 3 replicates)
- E23P/D25F/F98S -> 34 µM (2 of 3 replicates)
- E23M/R90A/D91K -> 21 µM (2 of 3 replicates)
- E23A/S55E/Q96S -> 74 nM (3 of 3 replicates)
- E23W/S88I/S93N -> 6.2 µM (2 of 3 replicates)

Excerpt, the final 3 entries:

changes	Kd	replicates with signal
E23M/R90A/D91K	21 µM	2 of 3
E23A/S55E/Q96S	74 nM	3 of 3
E23W/S88I/S93N	6.2 µM	2 of 3